Values quoted from earlier work as cited in paper PMC4770307, “New Synthetic Routes to Triazolo-benzodiazepine Analogues: Expanding the Scope of the Bump-and-Hole Approach for Selective Bromo and Extra-Terminal (BET) Bromodomain Inhibition” (Journal of Medicinal Chemistry, 2015).

Molecular target: BET bromodomains
Conditions: across BET bromodomains; cited from earlier work

## CCNC(=O)C[C@@H]1N=C(c2ccc(Cl)cc2)c2cc(OC)ccc2-n2c(C)nnc21 [I-BET762 (1)]
  Kd: 50 to 370 nM
